Like-named read-outs stand apart in the source and are kept apart here.

This test has as its system influenza virus (multiple flu strains). As to the kind of experiment: organism not typed. Particulars: MDCK.
Where [1] appears, read: read-out: NA Alaska H3N2, NA assay, Alaska H3N2 strain.
Where [2] appears, read: read-out: NA CAL H1N1, NA assay, CAL H1N1 strain.
Where [3] appears, read: read-out: NA Alaska H3N2 IC50, NA assay, Alaska H3N2 strain.
[4] abbreviates: read-out: NA CAL H1N1 IC50, NA assay, CAL H1N1 strain.
The mark [5] stands for this setting: read-out: NA—PR8 H1N1, NA assay, PR8 H1N1 strain.

Turning to `COc1cc(COc2ccc(-c3cc(C(N)=O)c(=O)[nH]c3C(F)(F)F)cc2)ccn1` [Example 106, 5-(4-((2-methoxypyridin-4-yl)methoxy)phenyl)-2-oxo-6-(trifluoromethyl)-1,2-dihydropyridine-3-carboxamide], the IC50 fell in the range of 100 to 1000 nM under setting [1] and 1000 to 5000 nM under setting [2].

Regarding `C[C@@]12O[C@H](COc3ccc(-c4cc(C(N)=O)c(=O)[nH]c4C(F)(F)F)cc3)CO[C@@H]1C2(F)F` [Example 395, 55-(4-(((1R,3S,6S)-7,7-difluoro-1-methyl-2,5-dioxabicyclo[4.1.0]heptan-3-yl)methoxy)phenyl)-2-oxo-6-(trifluoromethyl)-1,2-dihydropyridine-3-carboxamide], the IC50 lay within 10 to 100 nM under setting [3] and 100 to 1000 nM under setting [4].

For the compound `NC(=O)c1cc(-c2ccc(OCC3CN(CC4CC4)CCO3)cc2)c(C(F)(F)F)[nH]c1=O` (stereo not shown) [Example 194, 5-(4-((4-(cyclopropylmethyl)morpholin-2-yl)methoxy)phenyl)-2-oxo-6-(trifluoromethyl)-1,2-dihydropyridine-3-carboxamide], the IC50 lay in the range of 100 to 1000 nM under setting [1] and 10000 to 25000 nM under setting [2].

With `NC(=O)c1cc(-c2ccc(OCc3ccccc3)cc2)c(C(F)(F)F)[nH]c1=O` [Example 4, 5-(4-(benzyloxy)phenyl)-2-oxo-6-(trifluoromethyl)-1,2-dihydropyridine-3-carboxamide], the IC50 is 100 to 1000 nM under setting [1], 1000 to 5000 nM under setting [2] and 100 to 1000 nM under setting [5].

Consider `NC(=O)c1cc(-c2ccc(OCc3ccc4c(c3)OCCCO4)cc2)c(C(F)(F)F)[nH]c1=O` [Example 149, 5-(4-((3,4-dihydro-2H-benzo[b][1,4]dioxepin-7-yl)methoxy)phenyl)-2-oxo-6-(trifluoromethyl)-1,2-dihydropyridine-3-carboxamide], for which the IC50 runs as follows: under setting [1], 1000 to 5000 nM; under setting [2], 10000 to 25000 nM.

As to `NC(=O)c1cc(-c2ccc(OCc3cnccn3)cc2)c(C(F)(F)F)[nH]c1=O` [Example 123, 2-oxo-5-(4-(pyrazin-2-ylmethoxy)phenyl)-6-(trifluoromethyl)-1,2-dihydropyridine-3-carboxamide], the IC50 fell in the range of 10 to 100 nM under setting [1] and 100 to 1000 nM under setting [2].

In the case of `Cc1cc(COc2ccc(-c3cc(C(N)=O)c(=O)[nH]c3C(F)(F)F)cc2)cc(C)n1` [Example 147, 5-(4-((2,6-dimethylpyridin-4-yl)methoxy)phenyl)-2-oxo-6-(trifluoromethyl)-1,2-dihydropyridine-3-carboxamide], the IC50 runs as follows: under setting [1], 1000 to 5000 nM; under setting [2], 10000 to 25000 nM.

Regarding `CN1C(COc2ccc(-c3cc(C(N)=O)c(=O)[nH]c3C(F)(F)F)cc2)COCC1(C)C` (stereo not shown) [Example 207, 2-oxo-6-(trifluoromethyl)-5-(4-((4,5,5-trimethylmorpholin-3-yl)methoxy)phenyl)-1,2-dihydropyridine-3-carboxamide], the IC50 is, setting by setting: under setting [1], 100 to 1000 nM; under setting [2], 100 to 1000 nM.

Consider `NC(=O)c1cc(-c2ccc(OCc3ccncc3)cc2)c(C(F)(F)F)[nH]c1=O` [Example 70, 2-oxo-5-(4-(pyridin-4-ylmethoxy)phenyl)-6-(trifluoromethyl)-1,2-dihydropyridine-3-carboxamide], for which the IC50 under setting [1] lay within 100 to 1000 nM and the IC50 under setting [2] fell in the range of 1000 to 5000 nM.

With `NC(=O)c1cc(-c2ccc(OCCN3CCOCC3)cc2)c(C(F)(F)F)[nH]c1=O` [Example 259, 5-(4-(2-morpholinoethoxy)phenyl)-2-oxo-6-(trifluoromethyl)-1,2-dihydropyridine-3-carboxamide], the IC50 was in the range of 100 to 1000 nM under setting [3] and 5000 to 10000 nM under setting [4].

Consider `NC(=O)c1cc(-c2ccc(OCc3ccc4cccnc4c3)cc2)c(C(F)(F)F)[nH]c1=O` [Example 138, 2-oxo-5-(4-(quinolin-7-ylmethoxy)phenyl)-6-(trifluoromethyl)-1,2-dihydropyridine-3-carboxamide], for which the IC50 reads like this: under setting [1], 1000 to 5000 nM; under setting [2], 10000 to 25000 nM.

Regarding `NC(=O)c1cc(-c2ccc(CN3CCOCC3c3cccnc3)cc2)c(C(F)(F)F)[nH]c1=O` (stereo not shown) [Example 32, 2-oxo-5-(4-((3-(pyridin-3-yl)morpholino)methyl)phenyl)-6-(trifluoromethyl)-1,2-dihydropyridine-3-carboxamide], the IC50 is 100 to 1000 nM under setting [1] and 100 to 1000 nM under setting [2].

In the case of `NC(=O)c1cc(-c2cccc(NC=O)c2)c(C(F)(F)F)[nH]c1=O` [Example 10, 5-(3-formamidophenyl)-2-oxo-6-(trifluoromethyl)-1,2-dihydropyridine-3-carboxamide], the IC50 under setting [1] lay in the range of 1000 to 5000 nM and the IC50 under setting [2] is 1000 to 5000 nM.

With `COCc1ccc(-c2cc(C(N)=O)c(=O)[nH]c2C(F)(F)F)cc1` [Example 15, 5-(4-(methoxymethyl)phenyl)-2-oxo-6-(trifluoromethyl)-1,2-dihydropyridine-3-carboxamide], under setting [5], the IC50 lay within 1000 to 5000 nM.

In the case of `NC(=O)c1cc(-c2ccc(OCc3cncc(C4(F)COC4)c3)cc2)c(C(F)(F)F)[nH]c1=O` [Example 182, 5-(4-((5-(3-fluorooxetan-3-yl)pyridin-3-yl)methoxy)phenyl)-2-oxo-6-(trifluoromethyl)-1,2-dihydropyridine-3-carboxamide], the IC50 under setting [1] lay in the range of 100 to 1000 nM and the IC50 under setting [2] lay in the range of 1000 to 5000 nM.

Regarding `Cn1ncc2c(COc3ccc(-c4cc(C(N)=O)c(=O)[nH]c4C(F)(F)F)cc3)cccc21` [Example 132, 5-(4-((1-methyl-1H-indazol-4-yl)methoxy)phenyl)-2-oxo-6-(trifluoromethyl)-1,2-dihydropyridine-3-carboxamide], the IC50 runs as follows: under setting [1], 1000 to 5000 nM; under setting [2], 5000 to 10000 nM.

With `Cc1nc(C)c(COc2ccc(-c3cc(C(N)=O)c(=O)[nH]c3C(F)(F)F)cc2)s1` [Example 118, 5-(4-((2,4-dimethylthiazol-5-yl)methoxy)phenyl)-2-oxo-6-(trifluoromethyl)-1,2-dihydropyridine-3-carboxamide], the IC50 was in the range of 1000 to 5000 nM under setting [1] and 5000 to 10000 nM under setting [2].

With `NC(=O)c1cc(-c2ccc(OCc3cnc(NC4CCCC4)nc3)cc2)c(C(F)(F)F)[nH]c1=O` [Example 159, 5-(4-((2-(cyclopentylamino)pyrimidin-5-yl)methoxy)phenyl)-2-oxo-6-(trifluoromethyl)-1,2-dihydropyridine-3-carboxamide], the IC50 under setting [1] is 10 to 100 nM and the IC50 under setting [2] fell in the range of 100 to 1000 nM.

On to `Cn1cc(COc2ccc(-c3cc(C(N)=O)c(=O)[nH]c3C(F)(F)F)cc2)c(C(F)(F)F)n1` [Example 109, 5-(4-((1-methyl-3-(trifluoromethyl)-1H-pyrazol-4-yl)methoxy)phenyl)-2-oxo-6-(trifluoromethyl)-1,2-dihydropyridine-3-carboxamide], for which the IC50 reads like this: under setting [1], 1000 to 5000 nM; under setting [2], 100 to 1000 nM.

In the case of `Cc1cc(-c2cc(C(N)=O)c(=O)[nH]c2C(F)(F)F)ccc1CN1CCOCC1` [Example 43, 5-(3-methyl-4-(morpholinomethyl)phenyl)-2-oxo-6-(trifluoromethyl)-1,2-dihydropyridine-3-carboxamide], the IC50 is, setting by setting: under setting [1], 1000 to 5000 nM; under setting [2], 10000 to 25000 nM.

As for `NC(=O)c1cc(-c2ccc(OCC3CN(C4COC4)CCCO3)cc2)c(C(F)(F)F)[nH]c1=O` (stereo not shown) [Example 196, 5-(4-((4-(oxetan-3-yl)-1,4-oxazepan-2-yl)methoxy)phenyl)-2-oxo-6-(trifluoromethyl)-1,2-dihydropyridine-3-carboxamide], the IC50 under setting [1] fell in the range of 100 to 1000 nM and the IC50 under setting [2] was 10000 to 25000 nM.

On to `COc1ccnc(COc2ccc(-c3cc(C(N)=O)c(=O)[nH]c3C(F)(F)F)cc2)c1OC` [Example 144, 5-(4-((3,4-dimethoxypyridin-2-yl)methoxy)phenyl)-2-oxo-6-(trifluoromethyl)-1,2-dihydropyridine-3-carboxamide], for which the IC50 by setting is: under setting [1], 1000 to 5000 nM; under setting [2], 5000 to 10000 nM.

Turning to `NC(=O)c1cc(-c2ccc(OCC3CN(CC(F)F)CCO3)cc2)c(C(F)(F)F)[nH]c1=O` (stereo not shown) [Example 192, 5-(4-((4-(2,2-difluoroethyl)morpholin-2-yl)methoxy)phenyl)-2-oxo-6-(trifluoromethyl)-1,2-dihydropyridine-3-carboxamide], the IC50 runs as follows: under setting [1], 100 to 1000 nM; under setting [2], 10000 to 25000 nM.

For the compound `NC(=O)c1cc(-c2ccc(OCC3CCCO3)cc2)c(C(F)(F)F)[nH]c1=O` (stereo not shown) [Example 232, 2-oxo-5-(4-((tetrahydrofuran-2-yl)methoxy)phenyl)-6-(trifluoromethyl)-1,2-dihydropyridine-3-carboxamide], the IC50 is, setting by setting: under setting [3], 100 to 1000 nM; under setting [4], 100 to 1000 nM.

On to `CC(C)Oc1ccc(-c2cc(C(N)=O)c(=O)[nH]c2C(F)(F)F)cc1` [Example 17, 5-(4-isopropoxyphenyl)-2-oxo-6-(trifluoromethyl)-1,2-dihydropyridine-3-carboxamide], for which the IC50 under setting [5] was in the range of 1000 to 5000 nM.

As to `C[C@@H]1COC[C@H](COc2ccc(-c3cc(C(N)=O)c(=O)[nH]c3C(F)(F)F)cc2)O1` [Example 328, 5-(4-(((2R,6R)-6-methyl-1,4-dioxan-2-yl)methoxy)phenyl)-2-oxo-6-(trifluoromethyl)-1,2-dihydropyridine-3-carboxamide], the IC50 under setting [3] fell in the range of 10 to 100 nM and the IC50 under setting [4] lay in the range of 10 to 100 nM.

Turning to `NC(=O)c1cc(-c2ccccc2)c(C(F)(F)F)[nH]c1=O` [Example 16, 2-oxo-5-phenyl-6-(trifluoromethyl)-1,2-dihydropyridine-3-carboxamide], the IC50 under setting [5] is 1000 to 5000 nM.

Turning to `NC(=O)c1cc(-c2ccc(OCc3ccc4cn[nH]c4c3)cc2)c(C(F)(F)F)[nH]c1=O` [Example 85, 5-(4-((1H-indazol-6-yl)methoxy)phenyl)-2-oxo-6-(trifluoromethyl)-1,2-dihydropyridine-3-carboxamide], the IC50 under setting [1] lay within 1000 to 5000 nM.

`Cn1ncc2cc(COc3ccc(-c4cc(C(N)=O)c(=O)[nH]c4C(F)(F)F)cc3)ccc21` [Example 145, 5-(4-((1-methyl-1H-indazol-5-yl)methoxy)phenyl)-2-oxo-6-(trifluoromethyl)-1,2-dihydropyridine-3-carboxamide]: the IC50 under setting [1] fell in the range of 5000 to 10000 nM and the IC50 under setting [2] was in the range of 25000 to 50000 nM.

The values above are taken from patent US20240360082A1, “SUBSTITUTED PYRIDONE COMPOUNDS USEFUL TO TREAT ORTH[…]” (priority 2021, published 2024).
